Experimental data as given in paper PMC5012888, “Structure-based identification and characterisation of structurally novel human P2X7 receptor antagonists” (Biochemical Pharmacology, 2016).

The chains behind the UniProt entries cited, without tags or fusion partners.
UniProt Q99572, whole entry: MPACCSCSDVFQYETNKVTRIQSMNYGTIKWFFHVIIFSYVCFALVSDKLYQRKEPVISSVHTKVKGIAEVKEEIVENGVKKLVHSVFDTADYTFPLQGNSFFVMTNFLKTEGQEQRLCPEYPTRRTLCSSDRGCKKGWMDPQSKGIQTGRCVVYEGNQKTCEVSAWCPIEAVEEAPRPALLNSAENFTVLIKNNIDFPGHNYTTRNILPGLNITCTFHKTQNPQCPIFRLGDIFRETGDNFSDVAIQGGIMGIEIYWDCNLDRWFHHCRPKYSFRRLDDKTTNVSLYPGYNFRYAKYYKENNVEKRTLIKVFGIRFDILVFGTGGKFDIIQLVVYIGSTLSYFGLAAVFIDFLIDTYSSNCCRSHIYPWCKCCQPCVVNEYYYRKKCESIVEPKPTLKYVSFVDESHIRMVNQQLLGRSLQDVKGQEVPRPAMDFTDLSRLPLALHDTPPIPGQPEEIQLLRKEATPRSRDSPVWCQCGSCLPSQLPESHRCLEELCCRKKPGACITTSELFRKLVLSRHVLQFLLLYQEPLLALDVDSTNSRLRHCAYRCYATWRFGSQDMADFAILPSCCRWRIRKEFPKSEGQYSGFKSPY
UniProt P49654, whole entry: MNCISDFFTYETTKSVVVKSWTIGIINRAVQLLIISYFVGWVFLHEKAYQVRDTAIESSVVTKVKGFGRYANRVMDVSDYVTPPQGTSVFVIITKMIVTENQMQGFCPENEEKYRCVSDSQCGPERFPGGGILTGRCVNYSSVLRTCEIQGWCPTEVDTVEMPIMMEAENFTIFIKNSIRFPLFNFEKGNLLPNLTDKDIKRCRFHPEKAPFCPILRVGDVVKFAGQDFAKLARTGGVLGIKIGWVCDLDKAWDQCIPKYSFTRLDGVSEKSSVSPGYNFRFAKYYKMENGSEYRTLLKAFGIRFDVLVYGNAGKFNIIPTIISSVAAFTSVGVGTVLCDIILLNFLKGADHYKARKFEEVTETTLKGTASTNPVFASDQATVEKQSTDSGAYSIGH
UniProt Q64663, whole entry: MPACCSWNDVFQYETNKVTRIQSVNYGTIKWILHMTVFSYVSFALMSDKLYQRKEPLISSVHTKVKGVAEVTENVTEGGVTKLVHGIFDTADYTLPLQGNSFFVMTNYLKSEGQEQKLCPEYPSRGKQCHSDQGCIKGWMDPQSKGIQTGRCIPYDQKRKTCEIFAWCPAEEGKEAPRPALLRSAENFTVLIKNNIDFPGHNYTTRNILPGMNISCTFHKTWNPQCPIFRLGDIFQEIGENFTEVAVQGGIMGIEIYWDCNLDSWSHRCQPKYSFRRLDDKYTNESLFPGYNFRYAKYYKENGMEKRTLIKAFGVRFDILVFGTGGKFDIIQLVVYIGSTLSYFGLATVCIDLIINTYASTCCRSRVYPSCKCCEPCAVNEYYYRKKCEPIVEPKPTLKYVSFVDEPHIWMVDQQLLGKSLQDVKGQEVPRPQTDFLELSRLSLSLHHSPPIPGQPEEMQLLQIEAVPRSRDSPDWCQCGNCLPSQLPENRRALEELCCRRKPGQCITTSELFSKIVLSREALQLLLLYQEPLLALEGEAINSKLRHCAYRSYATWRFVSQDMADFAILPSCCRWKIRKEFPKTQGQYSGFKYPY
UniProt Q99571, whole entry: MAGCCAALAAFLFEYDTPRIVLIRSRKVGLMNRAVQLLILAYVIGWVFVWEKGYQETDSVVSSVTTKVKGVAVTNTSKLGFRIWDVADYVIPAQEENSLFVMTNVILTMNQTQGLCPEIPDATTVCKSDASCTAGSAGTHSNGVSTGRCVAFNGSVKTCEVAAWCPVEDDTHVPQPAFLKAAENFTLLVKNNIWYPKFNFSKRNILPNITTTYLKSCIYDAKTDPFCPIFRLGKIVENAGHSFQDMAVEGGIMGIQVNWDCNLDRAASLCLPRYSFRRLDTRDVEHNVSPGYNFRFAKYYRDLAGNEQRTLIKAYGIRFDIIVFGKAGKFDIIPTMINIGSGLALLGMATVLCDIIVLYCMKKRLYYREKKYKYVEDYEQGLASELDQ

Experiments:
[1] = biological target: T1, hP2X7R (Homo sapiens, UniProt Q99572); experiment: BzATP-induced Ca2+ responses in HEK293 cells expressing hP2X7R (FlexStation, Fura-2); conditions: 300 μM BzATP
[2] = biological target: T1, hP2X7R; experiment: BzATP-induced YO-PRO-1 uptake (large pore formation) in hP2X7R-expressing HEK293 cells, FlexStation; conditions: read-out: IC50 (μM) (dye uptake), YO-PRO-1 uptake induced by 300 μM BzATP, mean ± SEM
[3] = biological target: T1, hP2X7R; experiment: Whole-cell patch-clamp recording of BzATP-induced currents in hP2X7R-expressing HEK293 cells; conditions: 300 μM BzATP
[4] = biological target: rP2X3R (Rattus norvegicus, UniProt P49654); experiment: ATP-induced Ca2+ responses in rP2X3R-expressing HEK293 cells; conditions: compound at 10 μM; 100 μM ATP
Description: (§1) Human embryonic kidney (HEK) 293 cells stably expressing C-terminally EE-tagged human or rat P2X7R [42], [34], human P2X4R [15] and rat P2X3R [28] were generated in previous studies. A stable HEK293 cell line expressing C-terminally His-tagged human P2X7R was generated in this study and there was no difference in the experimental results using EE-tagged and His-tagged human P2X7R. These cells were maintained in Dulbecco’s Modified Eagle Medium (Life Technologies) supplemented with 10% foetal bovine serum and […] G418 in a tissue culture incubator at 37°C and 5% CO2 under humidified conditions. Cells were cultured in T25 flasks and split (every 3–4 days) once confluent.
(§2) FlexStation II and III (Molecular Devices) were used to measure intracellular Ca^2+ concentrations ([Ca^2+]i). Human or rat P2X7R-expressing HEK293 cells were plated in poly-D-lysine-coated 96-well plates (Molecular Devices) with 50,000 cells per well 24 h prior to use. […] Cells were excited at 340 nm and 380 nm alternatively and the emission at 510 nm recorded using a FlexStation. The ratio of fluorescence intensity (F340/F380) was used to indicate the [Ca^2+]i. The basal [Ca^2+]i was recorded for 60 s prior to the exposure to agonist and recording was continued for a further 120 s. […] The maximal changes in F340/F380 (ΔF340/380) were used for quantitative analysis.

[5] = test system: hP2X7R-expressing HEK293 cells; experiment: PI staining assay of ATP-induced cell death; conditions: compound at 10 and 30 μM, 3 mM ATP, 6 h
[6] = biological target: rP2X7R (Rattus norvegicus, UniProt Q64663); experiment: BzATP-induced Ca2+ responses in HEK293 cells expressing rP2X7R (FlexStation, Fura-2); conditions: compound at 10 μM; 300 μM BzATP
[7] = biological target: hP2X4R (Homo sapiens, UniProt Q99571); experiment: ATP-induced Ca2+ responses in hP2X4R-expressing HEK293 cells; conditions: compound at 10 μM; 100 μM ATP
Description: as §1, §2

[8] = biological target: T1, hP2X7R; experiment: ATP-induced YO-PRO-1 uptake by single cell imaging in hP2X7R-expressing HEK293 cells; conditions: 5 μM compound; 1 mM ATP, 30 min; ATP alone 63.0 ± 11.7%, control 14.7 ± 4.0%

CN(Cc1c(F)cccc1Cl)C(=O)c1ccc([N+](=O)[O-])s1
inhibition of BzATP-induced Ca^2+ responses (hP2X7R) ([1]; compound at 10 μM): 91.2 ± 4%
extent of inhibition of BzATP-induced Ca^2+ responses at highest concentrations ([1]; highest concentrations applied (10–30 μM)): complete inhibition
IC50 ([1]; read-out: IC50 (μM) (Ca^2+ response), hP2X7R-expressing HEK293 cells, mean ± SEM): 3.2 µM
IC50 [2]: 0.8 µM
effect on BzATP-induced currents ([3]; applied at 30–100 μM): no inhibition
IC50 ([3]; read-out: IC50 (μM) (current), 4 s, whole-cell patch-clamp, hP2X7R-expressing HEK293 cells, mean ± SEM): > 100 µM
effect on rP2X3R-mediated ATP-induced Ca^2+ responses [4]: smaller but statistically insignificant inhibition
reduction of ATP-induced cell death [5]: ≥ 50%
inhibition of BzATP-induced Ca^2+ responses (rP2X7R) [6]: 66.2 ± 22%
effect on ATP-induced Ca^2+ responses in hP2X4R-expressing HEK293 cells [7]: no significant effect
percentage of YO-PRO-1 positive cells in ATP-treated cells [8]: 33.8 ± 5.6%
